Data reported in EP0788741B1 (priority 1996, dated 1997).

Test system: Zebra mussel
Assay: Comparative 24-hour static exposure, LT50 of adult Zebra mussels (Example 5)
Format: in vivo
Settings: measured concentration 2.5 mg/L, about 20°C

Chlorine was tested, and the LT50 was >24.0 h.
